scFv variants of Ab-14 (light chain) against a SARS-CoV-2 spike peptide

Values reported by Li et al. 2023, doi:10.1038/s41467-023-39022-2 (FLAb copy).

Antigen: PDVDLGDISGINAS, a 14-residue peptide of the SARS-CoV-2 spike HR2 region.

Ab-14 is the parent antibody, in scFv form: VH, then a 15-residue (Gly4Ser)3 linker, then VL. The heavy chain is unchanged in all variants.
VH: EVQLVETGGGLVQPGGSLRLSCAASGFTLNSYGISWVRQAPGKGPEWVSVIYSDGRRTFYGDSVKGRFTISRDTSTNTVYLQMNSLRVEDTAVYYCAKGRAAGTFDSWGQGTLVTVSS
VL: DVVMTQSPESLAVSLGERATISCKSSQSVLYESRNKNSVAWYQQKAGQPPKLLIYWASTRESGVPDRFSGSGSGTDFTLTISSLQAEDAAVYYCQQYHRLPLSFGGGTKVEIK

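The parent was found by panning a naive human phage display library on the peptide. The variants were designed computationally from a first round of random CDR variants and then made and measured. Group labels follow the data file (Ctrl: baseline library sampled from a position-specific scoring matrix, with some repeated check sequences; GP: Gaussian process model; HC: hill climbing; a sequence that several methods proposed may carry one label only). Affinity was read by AlphaSeq, a pooled yeast mating assay with surface-displayed partners. After mating in shaken culture at 30 °C for 16 h, diploids were selected and their barcode pairs sequenced. A regression on co-assayed BCL2-family reference pairs converts the normalised counts of each replicate to an apparent Kd. Each pool was mated in six replicate cultures.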

The parent's light chain CDRs are KSSQSVLYESRNKNSVA, WASTRES, QQYHRLPLS; each variant's own CDRs replace them letter for letter.
Values are log10 of the apparent Kd in nM; lower means stronger binding.
Averages over replicates are reported, and they cover detected replicates only.
A pair that was not seen in that replicate is written "nd"; this usually means weak binding, but a binder can also be missed.

| CDR-L1 | CDR-L2 | CDR-L3 | group | replicates, log10 nM | mean log10 Kd (nM) | empty controls |
|---|---|---|---|---|---|---|
| KSGQSVLYESRNKASVA | WASTRES | QQYHRLPLS | Ctrl | nd / nd / nd / 1.88 / 1.93 / 2.20 | 2.01 | 0/18 |
| KSSQSVLYESQEKNSVA | WASTREP | QQYHRLPLS | Ctrl | 1.48 / 1.13 / 0.84 / 1.54 / 1.28 / 1.48 | 1.29 | 0/18 |
| KSSGNVLYESRNKNSVA | WASTRES | QQYHRLPLS | Ctrl | nd / nd / nd / nd / nd / nd | nd | 0/18 |
| KSSQSVLYESRNKNSVA | WASTRES | QQYHRTPNS | Ctrl | nd / nd / nd / nd / 1.44 / nd | 1.44 | 0/18 |
| KFHQSVLYESQNKNSVA | WASTRES | QQYHRLPLS | Ctrl | 0.52 / 0.42 / 0.39 / 0.45 / 0.24 / 0.51 | 0.42 | 1/18 (1.96) |
| KSSQSDLYESRNKNSVA | WASTRES | QQYHRLKLS | Ctrl | nd / nd / nd / nd / nd / nd | nd | 1/18 (1.70) |
| KSSQSVLYEQHNKNSVA | WASHRES | QQYHRLPLS | Ctrl | 1.73 / 1.43 / 1.97 / 1.25 / 1.95 / 1.36 | 1.61 | 0/18 |
| KSIQSVLYESRNKNSVA | SASTRES | QQYHRLPLS | Ctrl | 0.72 / 0.31 / 0.41 / 0.09 / 0.42 / 0.29 | 0.37 | 1/18 (2.84) |
| KSRQSVLYESRNKNSVA | WASTREH | QQYHRLPLS | Ctrl | 0.36 / 0.81 / 0.29 / 0.50 / 0.34 / 0.51 | 0.47 | 1/18 (2.82) |
| KSSQSVLYESRRKNSVA | WASLRES | QQYHRLPLS | Ctrl | nd / nd / nd / nd / nd / nd | nd | 0/18 |
| KSSQSVLYESRNKNSEA | AASTRES | QQYPRLPLS | Ctrl | nd / nd / nd / nd / nd / nd | nd | 0/18 |
| KSSQSVLYESENKNSVA | EASTRES | QQYHRLPLS | Ctrl+GP_HC | 0.48 / 0.59 / 0.47 / 0.60 / 0.63 / 0.63; 0.57 / 0.40 / 0.14 / 0.50 / 0.33 / 0.52 | 0.49 | 2/36 (2.25) |
| KSSDSVHYESANKNSVA | WASTRES | SQYHRLPLS | Ctrl | 2.56 / 3.32 / 3.07 / nd / 3.95 / nd | 3.23 | 1/18 (2.74) |
| KFSQSVLYESKNKNSVA | WASTRES | QVYHRLPLS | Ctrl | 1.44 / 1.19 / 1.58 / 1.09 / nd / 1.55 | 1.37 | 0/18 |
| KSSQSVLYESRNDNSVA | QASTRES | QQYHRLPLS | Ctrl | 0.24 / 0.22 / -0.18 / 0.04 / 0.25 / 0.45 | 0.17 | 2/18 (2.41) |
| KSSQSVWYESRNKNSVA | WASTREV | QQYHRLPLI | Ctrl | nd / 1.72 / nd / nd / nd / 1.84 | 1.78 | 0/18 |
| KSSQSVLYESRNKNSVA | WASTREM | QQVHRLPLS | Ctrl | nd / nd / nd / nd / nd / nd | nd | 1/18 (1.99) |
| KSKQSVLSESRNKNPVA | WASTRES | AQYHRLPLS | Ctrl | nd / nd / nd / nd / nd / nd | nd | 0/18 |
| KSSQSVLYESRNANSVA | KASTRES | QQYHRLPLS | Ctrl | 0.69 / 0.72 / 0.59 / 0.42 / 0.69 / 0.68 | 0.63 | 2/18 (3.56) |
| HSEQSVLEESRNKNSVA | WASTRES | QQYHRLPLI | Ctrl | nd / 2.08 / nd / nd / 1.69 / nd | 1.88 | 0/18 |
| KSSMSVLYFSRNKNSVA | WASTRES | QQYHRLPLS | Ctrl | nd / nd / nd / nd / nd / nd | nd | 1/18 (3.32) |
| KLSQSVLYESRDKNSVA | WASTRES | QQYHRLPLP | Ctrl | nd / nd / nd / nd / nd / nd | nd | 1/18 (1.91) |
| KSSQSVLYDSRNKNSVA | WASTRES | QQYHREPLS | Ctrl | nd / nd / nd / nd / nd / nd | nd | 0/18 |
| KSSQSMLYESRNKNSVA | WASTRLS | DQYHRLPLS | Ctrl | nd / nd / nd / nd / nd / nd | nd | 0/18 |
| KFSNSVLVESRNKNSVA | WASTRES | YQYHRLPLS | Ctrl | nd / 3.12 / nd / nd / 4.37 / nd | 3.74 | 0/18 |
| KSSQSVLDHSRNKNSVA | WASTRES | QQYHRLPLS | Ctrl | 1.64 / 1.35 / 1.43 / 1.07 / 1.39 / 1.66 | 1.42 | 0/18 |
| KSSQSVLVESRNKNNVA | SASTRES | QQYHRLPAS | Ctrl | nd / 1.68 / nd / 1.38 / nd / nd | 1.53 | 0/18 |
| KSSQSVLYESRNLNSVA | WASERES | QQYHNLPLS | Ctrl | 1.21 / 2.07 / 2.50 / 3.26 / 1.64 / 2.31 | 2.17 | 1/18 (3.20) |
| KESQSVLKESTEKNSVA | WASTLES | NQYHRLPLS | Ctrl | nd / nd / nd / nd / nd / nd | nd | 0/18 |
| KSSQSGSYESRNKNSVA | HATTRES | QQYHRLPLS | Ctrl | 0.46 / 0.04 / 0.25 / 0.18 / 0.06 / 0.35 | 0.23 | 0/18 |
| KSSQSVLIEIRNKNSVA | NASKRES | QQYHRLPLS | Ctrl | nd / nd / nd / nd / nd / 3.84 | 3.84 | 0/18 |
| KSSQSVRYESLNKNSVA | WASTRES | QDYDRLPLS | Ctrl | nd / nd / nd / nd / nd / nd | nd | 0/18 |
| KSWQSVLAESRNKNSVA | GASTRES | QQYHRLPLS | Ctrl | 1.12 / 0.66 / 0.75 / 0.89 / 0.73 / 0.86 | 0.84 | 0/18 |
| KSSQSVIYESSNKNSVA | DASTRES | QQYHRLPLS | Ctrl | 0.31 / 0.28 / 0.13 / -0.07 / 0.21 / 0.35 | 0.20 | 0/18 |
| KSSQNVLYESRNKNSVA | WASTRES | QQYSRLPLS | Ctrl | 0.72 / 0.91 / 0.94 / 1.85 / 0.93 / 2.51 | 1.31 | 0/18 |
| KYPQSGLYESTNKNSVA | WASTRES | QQYHRLPLS | Ctrl | 0.70 / 0.97 / 1.10 / 0.65 / 1.00 / 0.75 | 0.86 | 1/18 (2.40) |
| KSSQSSTYESRNKNSVA | DASTRES | QQYHRLPLS | Ctrl | 0.87 / 1.32 / 0.81 / 0.83 / 0.57 / 1.85 | 1.04 | 0/18 |
| KVSQSVLYESNNKFSVA | WASTRES | QQYHRLPLS | Ctrl | 1.27 / 0.91 / nd / 1.41 / 1.05 / 2.15 | 1.36 | 1/18 (1.54) |
| KSSQSVLYESRNKNSVA | EASTREH | QQYSRLPLS | Ctrl | -0.16 / -0.21 / -0.71 / -0.37 / -0.24 / -0.56 | -0.38 | 0/18 |
| KSQQSDLYESTNPNSVA | WASTRES | QQYHRLPLI | Ctrl | nd / 1.92 / nd / nd / nd / nd | 1.92 | 0/18 |
| KSSQSVLGESLYKNSVA | WASTRES | QQYHRLPLS | Ctrl | 1.57 / 1.61 / 1.58 / 1.95 / 0.96 / 1.71 | 1.56 | 0/18 |
| KSSQSVLYESRNKNSVA | EASQREE | QQYHRLPLS | Ctrl | 1.54 / 1.51 / 0.53 / 0.41 / 0.56 / 0.44 | 0.83 | 1/18 (1.93) |
| KSSLSVLYESRNKNSVA | TASTRES | QQYHRLPLS | Ctrl | 1.22 / 1.25 / 2.20 / 2.81 / 2.58 / 1.90 | 1.99 | 1/18 (2.82) |
| KSSQSVLYESRNKNSVA | YASTRES | QQMHRLPLS | Ctrl | 2.30 / 3.14 / 1.97 / 2.25 / 4.11 / 1.80 | 2.59 | 0/18 |
| KSSQSCLKESRNKNHMA | QAWTRES | QQYHRLPLS | Ctrl | nd / nd / nd / nd / nd / nd | nd | 0/18 |
| KGSQSVLPESRNKNSVA | MASTREF | QQYHFLPLS | Ctrl | nd / nd / nd / nd / nd / nd | nd | 0/18 |
| KSSQSVLYESRNKNSVA | WASTRES | GQYARLPII | Ctrl | nd / nd / nd / nd / nd / nd | nd | 1/18 (2.08) |
| KSSQSVLYEWRNKNSVA | NASTAES | QQYHRLPLS | Ctrl | 1.82 / 2.38 / 2.40 / 1.91 / 2.37 / 2.23 | 2.18 | 1/18 (2.68) |
| KSSQSVLDESQNKNSVA | EASTRES | QQYHRLPLS | Ctrl | 0.76 / 0.73 / 0.40 / 0.93 / 0.47 / 0.90 | 0.70 | 2/18 (2.22) |
| KNSQMVLYESRNKNSHA | WASVRNV | QQYHRLPLS | Ctrl | nd / 2.24 / nd / 1.61 / nd / 1.29 | 1.71 | 0/18 |

Excerpt, the first 4 entries:

CDR-L1,CDR-L2,CDR-L3,group,"replicates, log10 nM",mean log10 Kd (nM),empty controls
KSGQSVLYESRNKASVA,WASTRES,QQYHRLPLS,Ctrl,nd / nd / nd / 1.88 / 1.93 / 2.20,2.01,0/18
KSSQSVLYESQEKNSVA,WASTREP,QQYHRLPLS,Ctrl,1.48 / 1.13 / 0.84 / 1.54 / 1.28 / 1.48,1.29,0/18
KSSGNVLYESRNKNSVA,WASTRES,QQYHRLPLS,Ctrl,nd / nd / nd / nd / nd / nd,nd,0/18
KSSQSVLYESRNKNSVA,WASTRES,QQYHRTPNS,Ctrl,nd / nd / nd / nd / 1.44 / nd,1.44,0/18

Values of this round are not directly comparable with the first-round values of the same sequences.
Of ten entries with the parent sequence, four were seen in most replicates (averages 0.34 to 2.37), three in one and three in none, so single entries are noisy.
As a blank, each scFv also met three strains without target: over all light chain designs, 4% of these pairings were detected, typically at 2.64 and seldom below 1.59. The control count says in how many pairings with the empty strains this scFv gave a signal, with their mean in brackets.
Where one sequence has several entries in the source, the replicates are listed entry by entry, parted by semicolons.
In the paper, a design with two or fewer of six values counts as a poor binder.